From PubChem BioAssay AID720702 (The Scripps Research Institute Molecular Screening Center, 2013)
The list shows a part of the results, in another mix than the full data. Active and inactive are the calls of the source.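 How the source made its calls: active means inhibition above the mean of all tested compounds plus 3 SD, set per campaign (cut at about 25% in these data); inactive means the rest.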

Chains of the proteins cited; added tags and fusions are not shown. Lines headed by an entry give the natural chain unless they say otherwise; changes in a name come on top.
UniProt O95551: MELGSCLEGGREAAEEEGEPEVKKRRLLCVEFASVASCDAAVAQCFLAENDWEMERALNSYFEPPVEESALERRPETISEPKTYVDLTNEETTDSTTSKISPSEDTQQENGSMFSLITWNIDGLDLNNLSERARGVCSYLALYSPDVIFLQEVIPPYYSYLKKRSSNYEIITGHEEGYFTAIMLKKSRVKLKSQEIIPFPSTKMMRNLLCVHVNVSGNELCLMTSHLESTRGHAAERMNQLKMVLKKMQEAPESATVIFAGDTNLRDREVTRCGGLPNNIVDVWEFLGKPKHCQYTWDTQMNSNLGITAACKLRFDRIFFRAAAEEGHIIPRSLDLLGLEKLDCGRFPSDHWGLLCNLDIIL

Target: Tyrosyl-DNA phosphodiesterase 2 (Homo sapiens) (UniProt O95551)
Assay: human TDP2 enzyme inhibitors, primary screen, biochemical, epi absorbance, recombinant enzyme (AID 720702);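 further: 0% = DMSO with enzyme and 100% = buffer with substrate but no TDP2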
Conditions: recombinant TDP2, T5PNP hydrolysis, p-nitrophenol absorbance 415 nm; at 12.8 µM; stronger effect = higher value
Outline: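 System – recombinant human TDP2 · Quantity – TDP2 enzyme at 120 nM final · Doses – single concentration, 12.8 µM nominal, with 1% DMSO · Incubation – 2 h at 37 °C · Measured by – epi absorbance of p-nitrophenol freed from T5PNP by hydrolysis · Read-out – % inhibition relative to enzyme-containing and enzyme-free wells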

Row | Compound | inhibition
1 | CC(C)c1nc(Nc2ccccc2)n(P(=O)(N(C)C)N(C)C)n1 | inactive: -16.8%
2 | CC(C)=N/N=C(\N)N[N+](=O)[O-] | inactive: 1.18%
3 | CN(C)C(=O)OCCc1n(C)cc[n+]1C | inactive: 15.1%
4 | CC1CCN(C(=O)Oc2c(Cl)cc(Cl)c3cccnc23)CC1 | inactive: 6.28%
5 | c1cc(-c2nn[nH]n2)ccc1-c1nn[nH]n1 | inactive: -2.08%
6 | O=P1(N(CCCl)CCCl)OCCCS1 (stereo unspecified) | inactive: 7.64%
7 | O=C(Nc1cc([As](=O)(O)O)ccc1O)c1ccccc1 | inactive: -9.7%
8 | CC(C)(C)C(=O)NC(Sc1ccncn1)C(Cl)(Cl)Cl (stereo unspecified) | inactive: -13.2%
9 | O=[N+]([O-])c1ncn(CCn2ncnc2[N+](=O)[O-])n1 | inactive: 5.26%
10 | COC(=O)C1(C)COP(=O)(Nc2ccccc2)OC1 (stereo unspecified) | inactive: 6.35%
11 | O=[N+]([O-])c1cccc(NC2=NCC(CBr)S2)c1 (stereo unspecified) | inactive: -4.82%
12 | O=C(O)CNc1ccc([As](=O)(O)O)cc1 | inactive: 3.15%
13 | CC(=O)Nc1ccc([As](=O)(O)O)cc1 | inactive: 1.37%
14 | O=C(O)c1ccccc1[As](=O)(O)O | inactive: 13.2%
15 | CCCC1OP(N)(=O)OCC1CC (stereo unspecified) | inactive: 2.02%
16 | O=P(Nc1nc2ccc(Cl)cc2s1)(c1ccccc1)c1ccccc1 | inactive: 6.88%
17 | CN(C)P(=O)(N(C)C)n1c(Nc2ccccc2)nnc1-c1ccccc1 | inactive: 6.91%
18 | Cc1cc(SC(NC(=O)c2ccc(F)cc2)C(Cl)(Cl)Cl)ncn1 (stereo unspecified) | inactive: -2%
19 | CCOP(=O)(Nc1ccccc1)OCC | inactive: -5.75%
20 | Cc1ccc(NP(=O)(Oc2ccccc2F)Oc2ccccc2F)nc1 | inactive: 9.33%
21 | CN(C(=O)Cc1ccc(Cl)c(Cl)c1)[C@H]1CCCC[C@@H]1N1CCCC1 | inactive: -3.15%
22 | CCn1c(=O)n(C2CCN(CC3CCCCCCC3)C[C@H]2CO)c2ccccc21 (stereo partly specified) | inactive: 1.55%
23 | CN(C(=O)Cc1ccccc1)C1CC[C@@]2(CCCO2)C[C@@H]1N1CCCC1 (stereo partly specified) | inactive: -7.79%
24 | CCN(N=Nc1nonc1N)c1nonc1N | inactive: -6.86%
25 | Nc1cccc2ccc([As](=O)(O)O)cc12 | active: 37.2%
26 | NC(=O)c1cc([N+](=O)[O-])cc([N+](=O)[O-])c1N | inactive: -1.47%

Row | Compound | inhibition
27 | CN(C(=O)Cc1ccc(Cl)c(Cl)c1)[C@H]1CCCC[C@H]1N1CCCC1 | inactive: -9.47%
28 | Cc1ccc(N/C(=N/P(=O)(N2CCOCC2)N2CCOCC2)N2CCOCC2)cc1 | inactive: -2.37%
29 | COc1ccccc1OP(=O)(Nc1ccc(C)cn1)Oc1ccccc1OC | inactive: -9.21%
30 | Cc1ccc(OP(=O)(Nc2nccs2)Oc2ccc(C)cc2)cc1 | inactive: 4.43%
31 | CN1CCCC(OC(=O)C(c2ccccc2)c2ccccc2)C1 (stereo unspecified) | inactive: 3.79%
32 | Clc1ccc(Cl)c(NC2=NCC(CBr)S2)c1 (stereo unspecified) | inactive: 3.33%
33 | Nc1cc(N)c2nonc2c1[N+](=O)[O-] | inactive: 17.7%
34 | CC(C)CC(=O)NC(Sc1ccc(Cl)cc1)C(Cl)(Cl)Cl (stereo unspecified) | inactive: -12.5%
35 | Oc1ccccc1CNc1ccccn1 | inactive: 1.94%
36 | O=C(NC(Sc1ccncn1)C(Cl)(Cl)Cl)c1ccccc1 (stereo unspecified) | inactive: -4.42%
37 | O=C(OC1CN2CCC1CC2)C12CC3CC(CC(C3)C1)C2 (stereo unspecified) | inactive: -9.13%
38 | Cc1cc(=O)[nH]c(N[N+](=O)[O-])n1 | inactive: 4.93%
39 | Cc1c2c(nc3ccccc13)SC(C(Cl)Cl)C2 (stereo unspecified) | inactive: 1.02%
40 | COc1ccc2nc(NP(=O)(c3ccccc3)c3ccccc3)sc2c1 | inactive: 4.15%
41 | COc1cc(I)ccc1[As](=O)(O)O | inactive: -11.2%
42 | O=P1(N(CCCl)CCCl)OCCCN1CCCl (stereo unspecified) | inactive: 3.75%
43 | O=P1(N(CCCl)CCCl)Nc2ccccc2N1 | inactive: 4.65%
44 | COc1ccc(N/C(=N/P(=O)(N2CCOCC2)N2CCOCC2)N2CCOCC2)cc1 | inactive: 3.56%
45 | O=[N+]([O-])c1cc(Oc2ccc([N+](=O)[O-])cc2C(F)(F)F)cc([N+](=O)[O-])c1 | inactive: 2.4%
46 | O=[As](O)(c1ccc(O)cc1)c1ccccc1O | inactive: -1.13%
47 | C[As](=O)(O)c1cccc(C(=O)O)c1 | inactive: -7.74%
48 | O=[N+]([O-])c1ccc(-c2cc([N+](=O)[O-])c(O)c([N+](=O)[O-])c2)cc1 | inactive: -10.7%
49 | COc1cc(C(=O)NCC2(N3CCOCC3)CCCCC2)ccc1OCC(C)C | inactive: 2.24%
50 | Cc1ccc2nc3c(c(C)c2c1)CC(C(Cl)Cl)S3 (stereo unspecified) | inactive: -7.21%
51 | [N-]=[N+]=NC1CCCCC1NC(=O)c1cc([N+](=O)[O-])cc([N+](=O)[O-])c1 (stereo unspecified) | inactive: 14.3%
